# Values quoted from earlier work as cited in US20100028387A1, “Biocompatible Coated Nanostructured Titanium Surfaces” (priority 2007, published 2010).
# B1: rhBMP 2: recombinant human (rh) BMP 2, bone morphogenetic protein (protein, UniProt P12643 283-396, looked up)
# Bone morphogenetic protein 2: QAKHKQRKRLKSSCKRHPLYVDFSDVGWNDWIVAPPGYHAFYCHGECPFPLADHLNSTNHAIVQTLVNSVNSKIPKACCVPTELSAISMLYLDENEKVVLKNYQDMVVEGCGCR
# System: bone induction
# Settings: Bessho, et al., 1999
molecule,measurement,setting,value
B1,activity relative to purified human BMP 2,,one-tenth
same,amount of rhBMP 2 necessary to produce bone induction in vivo,collagen carrier,0.7-17 μg of BMP per mg of a collagen carrier
